Experiments:
[1] = test system: mitochondria extracted from human cultured cells; assay: NADH concentration under RET conditions with 5 μM NADH added (Example 6); conditions: hydrogen about 25 μM, 1 mM NAD+, 10 mM succinic acid, 0.2 mM Q10, 25 min at 30° C., 282 pmol/ml in the absence of hydrogen
complex I [2] = assay: reactive oxygen species from complex I, measured as H2O2, with NADH added and Strobilurin B (Example 7); conditions: presence of hydrogen, Example 6 conditions plus Strobilurin B
complex I [3] = assay: reactive oxygen species from complex I, measured as H2O2, with Strobilurin B (Example 3); conditions: presence of hydrogen, Example 2 conditions plus Strobilurin B
[4] = test system: mitochondria extracted from human cultured cells; assay: H2O2 generation with Q1 in place of Q10 (Example 4); conditions: presence of hydrogen
[5] = test system: mitochondria extracted from human cultured cells; assay: NADH oxidation / NAD+ reduction by mitochondria under RET conditions (Example 2); conditions: hydrogen about 25 μM; 1 mM NAD+, 10 mM succinic acid, 0.2 mM Q10, 25 min at 30° C.; 306 pmol/ml in the absence of hydrogen

hydrogen
NADH concentration (average value per minute) [1]: 1,118 pmol % ml
H2O2 relative to the value in the absence of hydrogen (complex I [2]): about one fifth
reactive oxygen species from complex I measured as H2O2 (complex I [2]; SOD, 23 μM in the absence of hydrogen): 3.9 µM
decrease of H2O2 relative to absence of hydrogen (complex I [3]): about one twelfth
reactive oxygen species from complex I measured as H2O2 (complex I [3]; SOD, 16.4 μM in the absence of hydrogen): 1.36 µM
H2O2 ([4]; Example 2 conditions with Q1 in place of Q10): 195 µM
H2O2 increase relative to absence of hydrogen ([4]; Q1 in place of Q10): about 20 times
NADH concentration (average value per minute) [5]: 165 pmol/mL

— patent US20210187012A1, “ANTI-COAGULANT AGENT, ANTICOAGULATION DEVICE, BLOOD COAGULATION CURING METHOD, VASCULAR ENDOTHELIAL CELL FUNCTION IMPROVING METHOD, AND METABOLISM IMPROVING METHOD” (H2BANK CO., LTD., priority 2018, published 2021)
